Experimental data taken from patent publication US20170095435A1, “AGENT FOR THE TREATMENT AND PREVENTION OF AUTISM SPECTRUM DISORDERS” (published 2017).

Key:
Balb/C mice [1] = assay: olfactory habituation/dishabituation test; conditions: for Response to the olfactory stimulus of Balb/C mice: 10-mg/kg i.p. once; for Response to Olfactory Stimuli of Balb/C mice: Table 5, Glycine mg/kg (dose not given)
Balb/C mice [2] = assay: learning and replicating the spatial skill in the Morris water maze
Balb/C mice [3] = assay: learning and replicating the spatial skill after spatial reversal (relearning) in the Morris water maze
[4] = after spatial reversal, 10-mg/kg, over 6 days

`NCC(=O)O` was tested, and the “effectiveness in the olfactory experiment” value (Balb/C mice [1]; 10-mg/kg, single administration) was “not very effective”, the “Response to the olfactory stimulus of Balb/C mice” value (shortened to “Response to the olfactory stimulus”) (Balb/C mice [1]; C57B1/6 mice odor, exposure 1) was 10.8 ± 0.9 units and the “Response to the olfactory stimulus” value (Balb/C mice [1]; C57B1/6 mice odor, exposure 2) was 5.0 ± 0.7 units. For the same compound, the “Response to the olfactory stimulus” value (Balb/C mice [1]; C57B1/6 mice odor, exposure 3) was 2.2 ± 0.5 units, the “Response to the olfactory stimulus” value (Balb/C mice [1]; Lemon, exposure 1) was 5.8 ± 0.5 units and the “Response to the olfactory stimulus” value (Balb/C mice [1]; Lemon, exposure 2) was 2.6 ± 0.6 units. The “Response to the olfactory stimulus” value (Balb/C mice [1]; Lemon, exposure 3) was 1.0 ± 0.3 units, the “Response to Olfactory Stimuli of Balb/C mice” value (from here on “Response to Olfactory Stimuli”) (Balb/C mice [1]; Lemon, exposure 1) was 5.9 ± 0.6 units and the “Response to Olfactory Stimuli” value (Balb/C mice [1]; Lemon, exposure 2) was 2.5 ± 0.5 units. The “Response to Olfactory Stimuli” value (Balb/C mice [1]; Lemon, exposure 3) was 1.0 ± 0.3 units, the “Response to Olfactory Stimuli” value (Balb/C mice [1]; Odor of C57B1/6 mice, exposure 1) was 10.6 ± 0.9 units and the “Response to Olfactory Stimuli” value (Balb/C mice [1]; Odor of C57B1/6 mice, exposure 2) was 5.2 ± 0.8 units. For the same compound, the “Response to Olfactory Stimuli” value (Balb/C mice [1]; Odor of C57B1/6 mice, exposure 3) was 2.1 ± 0.5 units, the “Response to Olfactory Stimuli” value (Balb/C mice [1]; Water, exposure 1) was 10.1 ± 0.8 units and the “Response to Olfactory Stimuli” value (Balb/C mice [1]; Water, exposure 2) was 6.1 ± 0.8 units. For the same compound, the “Response to Olfactory Stimuli” value (Balb/C mice [1]; Water, exposure 3) was 4.0 ± 0.9 units, the “Response to the olfactory stimulus” value (Balb/C mice [1]; Water, exposure 1) was 10.2 ± 0.9 units and the “Response to the olfactory stimulus” value (Balb/C mice [1]; Water, exposure 2) was 6.2 ± 0.9 units. For the same compound, the “Response to the olfactory stimulus” value (Balb/C mice [1]; Water, exposure 3) was 4.0 ± 1.0 units, the “habituation to olfactory stimuli as compared to the control Balb/C animals” value (Balb/C mice [1]; nanolycine 1- and 10-mg/kg, nanodiamond, glycine 10-mg/kg, Triftazin 0.5 mg/kg) was “faster” and the “Replication: Time in the platform quadrant” value (Balb/C mice [2]; 10-mg/kg, over 6 days) was 15.0 ± 5.2 s. The “Training: Number of effective attempts, 1 day” value (Balb/C mice [2]; 10-mg/kg, over 6 days) was 0.8 ± 0.3 units, the “Training: Number of effective attempts, 2 day” value (Balb/C mice [2]; 10-mg/kg, over 6 days) was 1.7 ± 0.6 units and the “Training: Time of searching for the platform, 1 day” value (Balb/C mice [2]; 10-mg/kg, over 6 days) was 54.5 ± 1.8 s. For the same compound, the “Training: Time of searching for the platform, 2 day” value (Balb/C mice [2]; 10-mg/kg, over 6 days) was 51.3 ± 3.2 s, the “difference from the linear (control Balb/C) mice on the first day of training” value (Balb/C mice [2]; nanolycine 1- and 10-mg/kg, nanodiamond, glycine, Triftazin) was “didn't show any statistically significant difference” and the “impact on the replication of the newly acquired skill” value (Balb/C mice [3]; Triftazin 0.5 mg/kg, glycine 10-mg/kg, nanolycine 10-mg/kg) was “did not make any impact”. For the same compound, the “Replication: Time in the platform quadrant” value (Balb/C mice [3]; [4]) was 8.2 ± 2.9 s, the “Training: Number of effective attempts, 1 day” value (Balb/C mice [3]; [4]) was 1.0 ± 0.3 units and the “Training: Number of effective attempts, 2 day” value (Balb/C mice [3]; [4]) was 1.0 ± 0.4 units. The “Training: Time of searching for the platform, 1 day” value (Balb/C mice [3]; [4]) was 51.9 ± 2.6 s, the “Training: Time of searching for the platform, 2 day” value (Balb/C mice [3]; [4]) was 56.5 ± 1.5 s and the “difference from the control group in both recorded parameters on the first and second day of retraining” value (Balb/C mice [3]; nanolycine 1-mg/kg, nanodiamond, glycine, Triftazin) was “did not show any statistically significant difference”.
